{"source": "patent US9676771B2", "about": "“Compounds for inhibiting drug-resistant strains of HIV-1 integrase” (priority 2013, dated 2017)", "target": "HIV-1 integrase (Human immunodeficiency virus type 1 group M subtype B, UniProt P12497)", "type": "biochemical", "protocol": "In Vitro Integrase Assay.\nIntegrase reactions were carried out by adding drugs or an equivalent volume of 100% dimethyl sulfoxide (DMSO; used as the drug solvent) to a mixture of 20 nM DNA and 400 nM integrase in 50 mM morpholinepropanesulfonic acid (pH 7.2), 7.5 mM MgCl2, and 14 mM 2-mercaptoethanol. Reactions were performed at 37° C. for 2 h and quenched by the addition of an equal volume of loading buffer (formamide containing 1% sodium dodecyl sulfate, 0.25% bromophenol blue, and xylene cyanol). […] Dried gels were visualized using a Typhoon 8600 (GE Healthcare, Piscataway, N.J.). Densitometric analyses were performed using ImageQuant 5.1 software from GE Healthcare.", "note": "Read-outs that look alike come from different tables or passages of the source.", "data": [{"smiles": "COC(=O)[C@H](C)Nc1c(C(=O)NCc2ccc(F)cc2F)c(=O)n(O)c2ncccc12", "note": "[XZ394, (S)-methyl 2-((3-((2,4-difluorobenzyl)carbamoyl)-1-hydroxy-2-oxo-1,2-dihydro-1,8-naphthyridin-4-yl)amino)propanoat]", "values": [{"measurement": "IC50", "setting": "read-out: IC50 (3^+-Processing)", "result": "7.4 ± 0.8", "unit": "µM"}, {"measurement": "IC50", "setting": "read-out: IC50 (Strand Transfer)", "result": "0.017 ± 0.002", "unit": "µM"}]}]}
